Assays:
Conditions in all cases: Group 2; 60 min; Dosage 1: α-ketoglutarate 2.85 μmol·kg^−1·min^−1 i.v. alone
[1] = test system: splanchnic area; experiment: splanchnic turnover (plasma flow times arterio-venous difference; negative = release, positive = uptake); assay type: in vivo, piglets
Protocol: Food was withheld from the animals for twelve hours prior to the experiment, but they had free access to water. […] In addition, all animals were given an intravenous bolus of morphine 1 mg·kg^-1 and, following tracheotomy, pancuronium bromide 0.3 mg·kg^-1. […] After the last measurements, still under anaesthesia, the animals were killed with an overdose of potassium chloride. After induction of anaesthesia the animals were tracheotomised and ventilated through an 8 mm endotracheal tube (Mallincrodt Laboratories, Athlone, Ireland) with a Servo ventilator […] ([…], Solna, Sweden). Ventilation was maintained at 25 breaths per minute with a positive end-expiratory pressure of 5 cm of H2O. […] The body temperature was kept stable by means of a thermostat controlled heating pad and warmed intravenous infusions. After skin incisions, a catheter was introduced in the left external jugular vein and advanced to the right hepatic vein under fluoroscopic control. Its position was confirmed by a contrast injection. The right external jugular vein was used for placement of a central venous catheter and a 7F pulmonary artery thermodilution catheter. An arterial catheter was inserted in a subclavian branch and advanced to a central position. Through a small suprapubic incision, a urinary catheter was placed in the bladder. A cutdown was made to place an ultrasonic flow probe (Transonic Systems Inc., Ithaca, N.Y., USA) around the femoral artery and to cannulate the femoral vein for blood sampling. Arterial blood gases were analysed on an ABL300/OSM3 system (Radiometer, Copenhagen, Denmark). […] The column eluate was mixed with ninhydrin reagent for amino acid detection. […] Blood glucose was analysed on a Reflolux® II (Boehringer Mannheim, Germany), using the glucose-oxidase/peroxidase reaction. Arterial and hepatic venous blood was drawn for calculations of splanchnic blood flow. […] The mean value of at least three measurements was adopted. Calculation of splanchnic blood flow was carried out according to the constant dye infusion technique (10). […] Splanchnic plasma flow was calculated according to a formula derived from Fick's principle: [formula] […] Femoral artery plasma flow was calculated as blood flow (1-EVF). The turnover of amino acids, ammonium and urea were calculated as plasma flow times the arterio-venous plasma concentration difference with negative values indicating release and positive values uptake. After anaesthesia and surgical preparation the piglets were allowed a stabilisation period of one hour and randomly assigned to either Group 1 or Group 2.

[2] = test system: anaesthetised piglet model; experiment: blood gas and hemodynamic variables in anaesthetised piglets during i.v. infusion; assay type: in vivo
Protocol: Food was withheld from the animals for twelve hours prior to the experiment, but they had free access to water. […] In addition, all animals were given an intravenous bolus of morphine 1 mg·kg^-1 and, following tracheotomy, pancuronium bromide 0.3 mg·kg^-1. […] After the last measurements, still under anaesthesia, the animals were killed with an overdose of potassium chloride. After induction of anaesthesia the animals were tracheotomised and ventilated through an 8 mm endotracheal tube (Mallincrodt Laboratories, Athlone, Ireland) with a Servo ventilator […] ([…], Solna, Sweden). Ventilation was maintained at 25 breaths per minute with a positive end-expiratory pressure of 5 cm of H2O. […] The body temperature was kept stable by means of a thermostat controlled heating pad and warmed intravenous infusions. […] Arterial blood gases were analysed on an ABL300/OSM3 system (Radiometer, Copenhagen, Denmark). […] Blood glucose was analysed on a Reflolux® II (Boehringer Mannheim, Germany), using the glucose-oxidase/peroxidase reaction. […] Splanchnic plasma flow was calculated according to a formula derived from Fick's principle: [formula] […] Femoral artery plasma flow was calculated as blood flow (1-EVF). The turnover of amino acids, ammonium and urea were calculated as plasma flow times the arterio-venous plasma concentration difference with negative values indicating release and positive values uptake. […]

[3] = test system: hind leg skeletal muscle; experiment: hind leg turnover (plasma flow times arterio-venous difference; negative = release, positive = uptake); assay type: in vivo, piglets
Protocol: Food was withheld from the animals for twelve hours prior to the experiment, but they had free access to water. […] In addition, all animals were given an intravenous bolus of morphine 1 mg·kg^-1 and, following tracheotomy, pancuronium bromide 0.3 mg·kg^-1. […] After the last measurements, still under anaesthesia, the animals were killed with an overdose of potassium chloride. After induction of anaesthesia the animals were tracheotomised and ventilated through an 8 mm endotracheal tube (Mallincrodt Laboratories, Athlone, Ireland) with a Servo ventilator […] ([…], Solna, Sweden). […] The body temperature was kept stable by means of a thermostat controlled heating pad and warmed intravenous infusions. After skin incisions, a catheter was introduced in the left external jugular vein and advanced to the right hepatic vein under fluoroscopic control. Its position was confirmed by a contrast injection. The right external jugular vein was used for placement of a central venous catheter and a 7F pulmonary artery thermodilution catheter. An arterial catheter was inserted in a subclavian branch and advanced to a central position. Through a small suprapubic incision, a urinary catheter was placed in the bladder. A cutdown was made to place an ultrasonic flow probe (Transonic Systems Inc., Ithaca, N.Y., USA) around the femoral artery and to cannulate the femoral vein for blood sampling. Arterial blood gases were analysed on an ABL300/OSM3 system (Radiometer, Copenhagen, Denmark). […] The column eluate was mixed with ninhydrin reagent for amino acid detection. […] Blood glucose was analysed on a Reflolux® II (Boehringer Mannheim, Germany), using the glucose-oxidase/peroxidase reaction. Arterial and hepatic venous blood was drawn for calculations of splanchnic blood flow. […] The mean value of at least three measurements was adopted. […] Femoral artery plasma flow was calculated as blood flow (1-EVF). The turnover of amino acids, ammonium and urea were calculated as plasma flow times the arterio-venous plasma concentration difference with negative values indicating release and positive values uptake. After anaesthesia and surgical preparation the piglets were allowed a stabilisation period of one hour and randomly assigned to either Group 1 or Group 2.

SMILES: O=C(O)CCC(=O)C(=O)O [α-KGA, α-ketoglutaric acid]
- Alanine turnover, splanchinc [1]: 4.11 ± 0.97 µmol/min/kg
- Arginine turnover, splanchinc [1]: 0.26 ± 0.22 µmol/min/kg
- Glutamate turnover, splanchinc [1]: -5.83 ± 0.61 µmol/min/kg
- Glutamine turnover, splanchinc [1]: 2.14 ± 0.31 µmol/min/kg
- NH4^+ turnover, splanchinc [1]: 0.50 ± 0.21 µmol/min/kg
- Total AA turnover, splanchinc [1]: 6.18 ± 2.26 µmol/min/kg
- Urea turnover, splanchinc [1]: -4.0 ± 1.2 µmol/min/kg
- Leg blood flow [2]: 6.0 ± 0.5 a ml · min^−1 · kg^−1
- Spl. blood flow [2]: 49 ± 6 mL/min/kg
- Alanine turnover, hind leg [3]: -0.20 ± 0.09 µmol/min/kg
- Arginine turnover, hind leg [3]: 0.03 ± 0.02 µmol/min/kg
- FE (%)-NH4^+, hind leg [3]: 5 ± 7%
- Glutamate turnover, hind leg [3]: 0.25 ± 0.06 µmol/min/kg
- Glutamine turnover, hind leg [3]: -0.09 ± 0.07 µmol/min/kg
- NH4^+ turnover, hind leg [3]: 0.01 ± 0.02 µmol/min/kg
- Total AA turnover, hind leg [3]: -0.36 ± 0.64 µmol/min/kg
- Urea turnover, hind leg [3]: -0.2 ± 0.4 µmol/min/kg

Reference: patent US20020147237A1, “Preservation of bodily protein” (priority 2001, published 2002)
